Patent US8685992B2, “Histone deacetylase inhibitors based simultaneously on trisubstituted 1H-pyrroles and aromatic and heteroaromatic spacers” (Universidad del País Vasco, priority 2009, dated 2014)

By UniProt entry, the sequences of proteins in these tests, tags left out. Where a name states a change or a piece, a line headed by the entry shows the natural chain unless it says otherwise.
UniProt Q9BY41: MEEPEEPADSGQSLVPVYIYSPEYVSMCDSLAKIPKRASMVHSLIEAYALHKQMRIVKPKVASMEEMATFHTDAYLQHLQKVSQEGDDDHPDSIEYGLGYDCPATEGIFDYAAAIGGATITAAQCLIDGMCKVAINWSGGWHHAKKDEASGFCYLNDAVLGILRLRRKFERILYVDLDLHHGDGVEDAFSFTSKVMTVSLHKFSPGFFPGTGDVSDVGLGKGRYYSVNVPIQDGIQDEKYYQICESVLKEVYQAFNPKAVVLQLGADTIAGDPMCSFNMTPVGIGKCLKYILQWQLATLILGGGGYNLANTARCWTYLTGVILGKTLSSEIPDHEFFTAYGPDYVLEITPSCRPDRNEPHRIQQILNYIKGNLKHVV

Target: Human HDAC8 (Homo sapiens (Human), UniProt Q9BY41)
Assay: HDAC8 fluorogenic peptide deacetylation assay
Format: biochemical

O=C(CCCCCCC(=O)Nc1ccccc1)NO [SAHA, suberoylanilide hydroxamic acid, reference compound]
IC50: 335 nM
